Laboratory results published in PubChem BioAssay AID1892 (NMMLSC, 2009).
The list shows a part of the results, in another mix than the full data. Activity calls are given as the source filed them. Cut-off read from the data, not from the text of the source: active = binding response below about 16% or above about 210%; inactive = in between.

biological target: Mitogen-activated protein kinase kinase kinase 2 (Homo sapiens) (UniProt Q9Y2U5); assay: wildtype MEKK2 PB1-MEK5 interaction enhancers or blockers – biochemical, single concentration, multiplex bead flow cytometry, confirmation (AID 1892); conditions: Alexa488-MEK5 binding to MEKK2 WT, at 10 µM, actives lie on both sides

Row | SMILES | binding response (% of control)
1 | CCN(CC)CCCOC(=O)C(O)(c1ccccc1)C1CCCCC1 (stereo not drawn) | inactive: 105%
2 | CP(=O)(Nc1ccc(Cl)cc1)Oc1ccc(F)cc1 (stereo not drawn) | inactive: 103%
3 | COc1ccccc1OP(C)(=O)Nc1c(C)cccc1C (stereo not drawn) | inactive: 105%
